## Apparent affinities of Ab-14 variants for a coronavirus HR2 peptide

Data: MIT Lincoln Laboratory AlphaSeq set, Li et al. 2023, doi:10.1038/s41467-023-39022-2, as distributed in FLAb.

The target is the same throughout: PDVDLGDISGINAS, from the HR2 region of SARS-CoV-2 spike.

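Phage display of a naive human antibody library on the peptide gave the parent. Designed CDR sequences, proposed from the first random library and measured here. Their group label is 14H_Rand (Rand: our label for a block that the file lists under HC and that is probably the random mutants of the ten best first-round binders). In AlphaSeq, yeast of one mating type display the scFv and yeast of the other type display the target. The frequency of each diploid, read from paired DNA barcodes, reflects how well the two displayed proteins bind. Scores were corrected for input abundance and mapped to Kd with protein pairs of known affinity run in the same pool. The assay was run in six technical replicates.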

Parent scFv Ab-14: VH joined to VL by three GGGGS repeats. Changes lie in the heavy chain CDRs alone.
VH: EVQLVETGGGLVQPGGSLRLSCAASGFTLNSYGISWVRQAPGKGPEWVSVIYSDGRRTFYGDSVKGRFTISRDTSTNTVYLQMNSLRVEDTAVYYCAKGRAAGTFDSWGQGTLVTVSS
VL: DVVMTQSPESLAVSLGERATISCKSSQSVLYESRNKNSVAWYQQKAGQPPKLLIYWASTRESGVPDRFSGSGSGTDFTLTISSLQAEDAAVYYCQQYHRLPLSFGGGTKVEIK

Variants are written as CDR1, CDR2 and CDR3 of the heavy chain (limits as in the source). Parent: GFTLNSYGIS, VIYSDGRRTFYGDSVK, GRAAGTFDS.
The read-out is the apparent dissociation constant on a log10 scale (nM): the lower, the stronger.
A mean of the replicates is given; it leaves out those without a signal.
"ND" marks a missing value. The strain was present, yet no cells mated with the target were sequenced in that replicate, which points to weak or no binding.

| # | CDR-H1 | CDR-H2 | CDR-H3 | replicates, log10 nM | mean log10 Kd (nM) | signal with controls |
|---|---|---|---|---|---|---|
| 1 | FFDLNSYGIS | VIYSDGRRTFYGDSVK | GRAAGWFNS | ND ND ND 3.34 0.98 ND | 2.16 | 0/18 |
| 2 | GFDLNSYGNS | VIYSDGRRTFYGDSVK | GRAAGWFNS | ND ND ND ND ND ND | ND | 0/18 |
| 3 | GFTLNSYGKS | VIYSDGRRTFYSDSVK | GRAGGTFDS | ND ND ND ND ND ND | ND | 0/18 |
| 4 | GFTLNQYGIS | VIYEDGRRTFYSDSVK | GRAAGFKDS | ND ND ND ND ND ND | ND | 0/18 |
| 5 | GFTLNDYGIS | VIYSGGRRTFYGDSVK | GRAALTFIS | ND ND ND ND ND ND | ND | 0/18 |
| 6 | GFTLDMYGIS | VIYSDGRRTFYGDSVK | GRAAGTALS | ND ND ND ND ND ND | ND | 0/18 |
| 7 | GFTLPSYGID | VIYSDGRRTFYDDSVK | GQLAGTFDS | ND ND ND ND ND ND | ND | 0/18 |
| 8 | GFTLDSYGIS | VIYSDGRRTFYGDSVK | GRAAGTALA | ND ND ND ND ND ND | ND | 0/18 |
| 9 | GFTLNEYGIS | VIYSDGRPTFYGKSVK | GRAAVTFDQ | ND ND ND ND ND ND | ND | 0/18 |
| 10 | GFTLNEYGIS | VIYSDGRRTFYTDSVK | GRFAFQFDS | ND ND ND 2.70 ND ND | 2.70 | 0/18 |
| 11 | GFTLNDYGIF | VIYSDGRRTQYIDSVK | GRAAGTFDS | ND ND ND ND ND ND | ND | 0/18 |
| 12 | GFTLNQYGIS | VIYSDGRRTFWSDSVK | GRTAGFFDS | ND ND ND ND ND ND | ND | 0/18 |
| 13 | GFTSNQYGIS | VIYSDGRRGFYSDAVK | GRCAGFFDS | ND ND ND ND ND ND | ND | 0/18 |
| 14 | GFTLNDYGIE | VIYSIPRRTFYGDSVK | GRAALTFIS | ND ND ND ND ND ND | ND | 0/18 |
| 15 | GFTLNEYGIS | VNYSDGRRTFYGDSVK | VRAAVTFDQ | ND ND ND ND ND ND | ND | 0/18 |
| 16 | RFNLNWYGIS | VIYSDHRRTFYGPSVK | GRAAGWFNS | ND ND ND ND ND ND | ND | 0/18 |
| 17 | GFTLNYYGIS | VIYSDGRRTQYIDSVK | GPAAGTFCS | ND ND ND ND ND ND | ND | 0/18 |
| 18 | GFHLNDYGIS | VIYSDKRATQYIDSVK | GRLAGTFDS | ND ND ND ND ND ND | ND | 0/18 |
| 19 | GFDLNSYGIG | VIYSDGRRTAYGDSVK | GLAAGWFNS | ND ND ND ND ND ND | ND | 1/18 (2.62) |
| 20 | GFTLNQYGIS | VIYSDGRRTFYSDSVK | GRSAGFFDS | ND ND ND ND ND ND | ND | 0/18 |
| 21 | GFTLNSYFIS | VIYSDGRRTFYTDSWK | GRFAGTFDS | ND ND ND ND ND ND | ND | 1/18 (-0.02) |
| 22 | GFTLQSYGIS | VIYSDGRRIFYGDSVK | GRAAGTALS | ND 1.39 ND ND ND ND | 1.39 | 1/18 (-0.11) |
| 23 | GFTLNSYGIS | VIYSDTRRTFYSDSVK | GRAGGTFDS | ND ND ND ND ND ND | ND | 0/18 |
| 24 | GFTLNSYGIS | VIYSDGRRTFYSDSVK | GRAKGTFDS | ND 3.36 ND ND ND ND | 3.36 | 0/18 |
| 25 | GFTLDSYGIS | VIYSDGRRTFYGDSVK | GRAAGTANS | ND ND ND ND ND 1.98 | 1.98 | 0/18 |
| 26 | GFTLNQSGIS | VIYSDGRRGFYSDSVK | GRAAGFFDS | ND ND ND ND ND ND | ND | 0/18 |
| 27 | GFTLNEYGIS | VIYSDGRRTFYGDYVK | ERAAVTFDQ | ND ND ND ND ND ND | ND | 0/18 |
| 28 | GFTLNETGIS | VIYSDGRETFYGDSVK | GRAAVTFDQ | ND ND ND ND ND ND | ND | 0/18 |
| 29 | GFTLNSYGIS | VIYSDGRRTFYSDSVK | GRAGGTNDS | ND ND ND ND ND ND | ND | 0/18 |
| 30 | GFTLNMYGIS | VIYPDGRRTFYSDSVK | GRAAGFFDS | ND ND ND ND ND ND | ND | 0/18 |
| 31 | GFTLDSLGIS | VIYSDGRRTFYGRSVK | GRAAGTALS | ND ND ND ND ND ND | ND | 0/18 |
| 32 | GFTLNEYGIS | VIYSDGRRTFYGLSVK | GRAAVTFDQ | ND ND ND ND ND ND | ND | 0/18 |
| 33 | GFTLNSYGIS | VIYADGRRTFYGVSVK | GRAEGTNIS | ND ND ND ND ND ND | ND | 0/18 |
| 34 | GFTLNEYGIS | VAYSDGNRTFYGDSVK | GRAAVSFDQ | ND ND ND ND ND ND | ND | 0/18 |
| 35 | GFTLNDYGIS | VIYSDGRRTFYNDFVK | GRAALTFIS | ND ND ND ND ND 0.80 | 0.80 | 0/18 |
| 36 | GFDLSSYGIS | VIYSDGRRCFYGDSVK | GRAAGWFNS | ND ND ND ND ND ND | ND | 0/18 |
| 37 | GFTLNQRGIS | VIYSDGRRTFYSDSVK | GRAAGFFTS | ND ND ND ND ND ND | ND | 0/18 |
| 38 | GFTLNDYGIS | VIYSDGRRTVYGDSVK | GRAALTFIS | ND ND ND ND ND ND | ND | 0/18 |

Excerpt, the final 3 entries:

{"CDR-H1": "GFDLSSYGIS", "CDR-H2": "VIYSDGRRCFYGDSVK", "CDR-H3": "GRAAGWFNS", "replicates, log10 nM": "ND ND ND ND ND ND", "mean log10 Kd (nM)": "ND", "signal with controls": "0/18"}
{"CDR-H1": "GFTLNQRGIS", "CDR-H2": "VIYSDGRRTFYSDSVK", "CDR-H3": "GRAAGFFTS", "replicates, log10 nM": "ND ND ND ND ND ND", "mean log10 Kd (nM)": "ND", "signal with controls": "0/18"}
{"CDR-H1": "GFTLNDYGIS", "CDR-H2": "VIYSDGRRTVYGDSVK", "CDR-H3": "GRAALTFIS", "replicates, log10 nM": "ND ND ND ND ND ND", "mean log10 Kd (nM)": "ND", "signal with controls": "0/18"}

Nonspecific signal, from three strains lacking the peptide, appeared in 1% of pairings of all heavy chain designs, centred on 2.08 (5% of these signals below 0.84); values are not corrected for it. Also given: how often the same scFv was detected with the empty control strains, with their mean in brackets.
The authors averaged sequences with at least three values out of six and counted those with two or fewer as poor binders.
The range of this assay differs from that of the first round, and the authors advise against merging the two.